From PMC3191772 come the findings set out here.

Where “and” joins values, the source holds several entries; their conditions need not be identical. Equal entries are not always repeated.

For this experiment, the target named is Hsp27 labeled with acrylodan (UniProt P04792). Description: other fluorescence titration; 1 μM AC-Hsp27 held constant, F-actin varied; separate samples incubated overnight at 37°C in F-buffer; acrylodan fluorescence at 485 nm (excitation 395 nm); apparent constant, quadratic binding fit with the actin/Hsp27 stoichiometry fixed at 1.0 or varied.

As to “F-actin (actin filament polymerized from rabbit skeletal muscle actin) (from UniProt P68135 1-377) (natural protein; other documents disagree on this pair)”, the Kd was 5.3 µM and 3 to 5.6 µM.
